Literature values in US7368458B2, “Bicyclic heterocycles as cannabinoid receptor modulators” (Bristol-Myers Squibb Company, priority 2005, dated 2008).

Details: chronic administration for two weeks

## Cc1c(C(=O)NN2CCCCC2)nn(-c2ccc(Cl)cc2Cl)c1-c1ccc(I)cc1 [AM-251]
  adipose tissue mass: decreased adipose tissue mass
